Reference: US4238491A (priority 1977, dated 1980)
Where two headings read alike, the source gives them in different places.

Key:
[1] = 20 mg/kg oral, MR = 1
[2] = test system: blood pressure of SHR; assay: Antihypertensive effect by single administration, SHR, direct cannulation; type: in vivo, rat (spontaneously hypertensive rats; details: from DB20
Method: The effect was examined through both direct and modified tail-cuff methods using male SHRs aged 25 to 30 weeks and weighing about 300 g.
In the direct cannulation method, polyethylene cannules were inserted in femoral arteries of the conscious unanesthesized SHRs under back-fixation,and MR solution was administered in an amount of 0.1 mg/100 g of weight for venous injection, and 1 ml/100 g of weight for oral administration. Changes in the blood pressure over 6 hours were measured with a multi-purpose polygraph RM-85 made by NIHON KODEN Co., Ltd. MR was dissolved in 0.9% NaCl aqueous solution with 1 N-HCl, and the solution was neutralized for use.

[3] = test system: rats; type: in vivo, rat (SD (SPF)); details: oral sub-acute
Method: All the rats were observed daily and general symptoms noted. Weight was measured daily, average food-intake once every three days, and average water-intake once every two days.

[4] = test system: rats; details: rat, in vivo
[5] = test system: rats
From the text: Rats were sacrificed under anesthesia with ether. After observation of gross appearance of all the organs, extraction and weighing were made on spleen, lung, liver, adrenal, heart, thymus, kidney, testicles, hypophysis and thyroid. In addition to the above organs, femoral bone marrow, lymph node, stomach, intestine, pancreas, urinary bladder, prostate and central nervous system were removed and fixed in 10% formaline solution.

[6] = test system: rats; remark: listed apart in the source

SMILES	Bioavailability Ratio (area under the curve) [1]	Rate of Effects (relative to MR) ([2]; I.V.)	Rate of Effects (relative to MR) ([2]; P.O.)	lethal dose [3] [mg/kg]	GPT [4]	Absolute weight Testis ([5]; 50.0 mg/kg) [g]	Absolute weight Heart ([5]; 100.0 mg/kg) [g]	Absolute weight Testis ([5]; 100.0 mg/kg) [g]	Absolute weight Adrenal ([5]; rat, in vivo)	Absolute weight Heart ([5]; rat, in vivo)	Absolute weight Testis ([5]; rat, in vivo)	R.B.C. ([6]; 50.0 mg/kg, day 30)	W.B.C ([6]; 50.0 mg/kg, day 30)	R.B.C. ([6]; 100.0 mg/kg, day 30)	red cell count ([6]; 100 and 200 mg/kg groups)	white cell count ([6]; 100 and 200 mg/kg groups)	hematology ([6]; groups other than 100 and 200 mg/kg)	R.B.C. ([6]; rat, in vivo)
COC(=O)[C@H]1[C@H]2C[C@@H]3c4[nH]c5cc(OC)ccc5c4CCN3C[C@H]2C[C@@H](OC(=O)/C=C/c2cc(OC)c(OC)c(OC)c2)[C@@H]1OC [RCN, Rescinnamin]	0.32	2.70	1.22	36	–	–	–	–	–	–	–	–	–	–	–	–	–	–
COC(=O)[C@H]1[C@H]2C[C@@H]3c4[nH]c5cc(OC)ccc5c4CCN3C[C@H]2C[C@@H](O)[C@@H]1OC [MR, methylreserpate]	–	–	–	–	32.0±1.16	1.68 ± 0.03	1.16 ± 0.04	1.51 ± 0.09	24.95±1.42	1.15±0.04	1.63±0.05	901±15.1 x10^4 /mm^3	153±12.5 ×10^2 /mm^3	915±15.1 x10^4 /mm^3	increase in red cell count	decrease in white cell count	no significant change	770±15.1 x10^4 /mm^3
